{
  "sequences": {"note": "Sequences of proteins named here, by UniProt entry; tags and fusion partners are left off.", "UniProt P23977, whole entry": "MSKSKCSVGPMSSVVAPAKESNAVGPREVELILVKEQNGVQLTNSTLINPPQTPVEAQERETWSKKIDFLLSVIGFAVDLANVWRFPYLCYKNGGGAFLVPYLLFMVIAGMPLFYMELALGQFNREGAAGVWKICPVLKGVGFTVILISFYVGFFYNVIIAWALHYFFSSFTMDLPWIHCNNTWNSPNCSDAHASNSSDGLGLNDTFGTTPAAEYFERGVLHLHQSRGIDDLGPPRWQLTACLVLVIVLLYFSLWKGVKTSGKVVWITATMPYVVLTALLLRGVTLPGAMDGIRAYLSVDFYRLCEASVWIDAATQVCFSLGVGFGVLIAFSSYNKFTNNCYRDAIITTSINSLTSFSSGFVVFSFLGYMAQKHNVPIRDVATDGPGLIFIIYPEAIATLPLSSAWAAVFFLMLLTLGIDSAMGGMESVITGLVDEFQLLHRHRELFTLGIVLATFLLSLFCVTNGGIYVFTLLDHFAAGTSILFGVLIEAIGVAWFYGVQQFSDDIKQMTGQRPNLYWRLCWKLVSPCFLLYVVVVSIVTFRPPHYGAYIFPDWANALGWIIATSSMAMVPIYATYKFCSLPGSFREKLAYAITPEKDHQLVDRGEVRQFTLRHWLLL"},
  "source": "ChEMBL document CHEMBL1130389",
  "about": "“Synthesis and ligand binding studies of 4'-iodobenzoyl esters of tropanes and piperidines at the dopamine transporter” (J Med Chem, 1997)",
  "biological_target": "Sodium-dependent dopamine transporter (Rattus norvegicus, UniProt P23977)",
  "assay": "Compound was tested for inhibitory activity to displace [3H]WIN-35428 at dopamine transporter in Rat Striatal Membranes.",
  "data": [
    {"smiles": "COC(=O)[C@H]1[C@@H](OC(=O)c2ccc(I)cc2)C[C@H]2CC[C@H]1N2C", "values": [
      {"measurement": "IC50", "result": 2.52, "unit": "µM"}
    ]}
  ]
}
